From ChEMBL document CHEMBL1122866, “3-Phenyl-1-indanamines. Potential antidepressant activity and potent inhibition of dopamine, norepinephrine, and serotonin uptake” (J Med Chem, 1985)

By UniProt entry, the sequences of proteins in these tests, tags left out.
UniProt P23977, whole entry: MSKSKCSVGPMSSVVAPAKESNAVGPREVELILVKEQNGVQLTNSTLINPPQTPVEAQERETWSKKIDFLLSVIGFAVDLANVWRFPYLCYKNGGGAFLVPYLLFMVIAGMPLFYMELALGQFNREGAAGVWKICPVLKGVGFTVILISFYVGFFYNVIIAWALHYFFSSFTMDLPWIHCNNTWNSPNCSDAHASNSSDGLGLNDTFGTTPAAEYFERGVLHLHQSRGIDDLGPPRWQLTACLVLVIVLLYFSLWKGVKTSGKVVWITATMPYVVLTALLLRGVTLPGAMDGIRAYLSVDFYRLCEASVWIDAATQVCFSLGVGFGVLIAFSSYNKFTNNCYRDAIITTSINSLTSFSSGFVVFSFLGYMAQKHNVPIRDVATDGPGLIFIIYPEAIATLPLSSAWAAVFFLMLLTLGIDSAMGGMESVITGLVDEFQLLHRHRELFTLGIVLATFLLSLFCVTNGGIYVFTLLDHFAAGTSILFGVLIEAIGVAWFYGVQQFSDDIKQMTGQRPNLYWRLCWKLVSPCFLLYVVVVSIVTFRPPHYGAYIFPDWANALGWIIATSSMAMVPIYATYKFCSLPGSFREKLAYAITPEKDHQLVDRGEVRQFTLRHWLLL

Target: Sodium-dependent dopamine transporter (Rattus norvegicus, UniProt P23977)
Experiment: Inhibition of dopamine uptake in rat synaptosomal fraction
Assay type: functional

CNC1CC(c2ccc(Cl)c(Cl)c2)c2ccccc21 (single isomer, unassigned; (-)) [INDATRALINE] was tested, and the IC50 was 8.6 nM.

CNC1CC(c2ccc(Cl)c(Cl)c2)c2ccccc21.Cl (stereo in doubt; 45) was tested, and the IC50 was 0.99 nM.

CNC1CC(c2ccc(Cl)c(Cl)c2)c2ccccc21 (single isomer, unassigned; (+)) [INDATRALINE] gave an IC50 of 0.17 nM.

Work on CNC1CC(c2ccc(Cl)c(Cl)c2)c2ccccc21 (stereo in doubt; 72) yielded an IC50 of 20 nM.
